# From PMC5511785 (Journal of pharmaceutical sciences, 2017)
# Protein sequences, listed by entry. Tags and fused reporters are not part of them. Lines headed by an entry give the natural chain unless they say otherwise; changes in a name come on top.
# UniProt Q9Y6L6: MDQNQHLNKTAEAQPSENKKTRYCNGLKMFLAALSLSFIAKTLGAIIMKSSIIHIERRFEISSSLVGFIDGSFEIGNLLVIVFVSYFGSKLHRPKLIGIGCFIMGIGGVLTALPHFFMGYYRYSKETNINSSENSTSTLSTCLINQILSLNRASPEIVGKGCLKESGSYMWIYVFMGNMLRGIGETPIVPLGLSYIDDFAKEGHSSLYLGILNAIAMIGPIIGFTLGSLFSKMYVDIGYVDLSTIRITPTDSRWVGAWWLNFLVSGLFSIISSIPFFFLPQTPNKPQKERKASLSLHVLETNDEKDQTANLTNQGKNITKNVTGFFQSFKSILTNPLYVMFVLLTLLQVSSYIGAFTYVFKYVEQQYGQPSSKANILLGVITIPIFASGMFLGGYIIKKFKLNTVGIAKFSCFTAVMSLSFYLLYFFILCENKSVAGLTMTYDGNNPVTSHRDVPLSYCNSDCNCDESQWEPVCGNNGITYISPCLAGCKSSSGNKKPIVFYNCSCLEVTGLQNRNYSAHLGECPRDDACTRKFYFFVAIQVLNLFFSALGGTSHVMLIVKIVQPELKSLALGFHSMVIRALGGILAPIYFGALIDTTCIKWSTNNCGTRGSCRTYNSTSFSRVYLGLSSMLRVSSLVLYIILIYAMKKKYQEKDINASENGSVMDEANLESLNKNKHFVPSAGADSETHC
# “And” between values parts separate entries of the source, which are not always exact repeats. Equal entries are not always repeated.
# Columns and labels:
# [1] = target: T1, OATP1B1 (Homo sapiens, UniProt Q9Y6L6); experiment: OATP1B1-mediated [3H]-E1S accumulation; type: cell-based; details: 1 h
# [2] = rifampicin with pravastatin; cited from earlier work
# [3] = target: T1, OATP1B1; details: pre+co-incubation vs co-incubation
# [4] = test system: human sandwich-cultured hepatocytes (SCH); experiment: [3H]-CCK-8 accumulation in human sandwich-cultured hepatocytes; type: cell-based; details: 1 h pre-incubation with 10 μM, washed, CCK-8 1 μM, 3 min
# [5] = test system: HEK293-OATP1B1 and -1B3 cells; details: 1 h treatment; rifampicin up to 25 μM, dasatinib up to 20 μM
# [6] = test system: human sandwich-cultured hepatocytes (SCH); experiment: [3H]-pitavastatin accumulation in human sandwich-cultured hepatocytes; type: cell-based; details: 1 h pre-incubation with 10 μM, washed, pitavastatin 1 μM, 0.5 min
smiles,measurement,setting,value
CO[C@H]1/C=C/O[C@@]2(C)Oc3c(C)c(O)c4c(O)c(c(/C=N/N5CCN(C)CC5)c(O)c4c3C2=O)NC(=O)/C(C)=C\C=C\[C@H](C)[C@H](O)[C@@H](C)[C@@H](O)[C@@H](C)[C@H](OC(C)=O)[C@@H]1C [Rifampicin],"[3H]-E1S accumulation, fold of control",[1]; pre-incubation 10 μM,0.70 ± 0.16 fold of control
same,"[3H]-E1S accumulation, fold of control",[1]; pre-incubation 25 μM,0.23 ± 0.09 fold of control
same,Cmax ratio of pravastatin in a clinical study,[2],2.7
same,Fold reduction of Ki/IC50 against OATP1B1 by pretreatment,[3],3 fold and ~ 3 fold
same,"[3H]-CCK-8 accumulation, fold of CTL",[4],0.37 ± 0.17 fold of CTL
same,LDH cytotoxicity,[5],negligible toxicity
same,"[3H]-pitavastatin accumulation, fold of CTL",[6],0.66 ± 0.07 fold of CTL
